These results are taken from patent US20230088717A1, “NEW IMMUNOSTIMULATORS AND USE THEREOF IN IMMUNOTHERAPY” (NANTES UNIVERSITÉ, priority 2020, published 2023).

The subject of assay [1] is iNKT cells. The assay is described as follows: IFN-γ secretion by iNKTs after activation with HeLa-CD1d cells loaded with cetuximab coupling fractions. The conditions noted are these: for Observed concentration (glycolipid concentration equivalent to observed IFN-γ secretion): HeLa-CD1d cells. In kind it is cell-based, human. As for the experimental part:
(§1) First cetuximab was modified by adding TRAUT functions, with a ratio of 100 TRAUT molecules for 1 antibody. It allowed addition of at least 4 TRAUT functions to cetuximab, as determined by the Ellman reaction previously investigated (data not shown). The mixture was washed and then 1/1 equivalent of 6-Mal-PEG6-GalCer 3a and activated cetuximab were incubated to initiate the linkage.
(§2) The main difficulty encountered in these experiments is to ensure the elimination of the unreacted glycolipids in the medium after the coupling reaction with the antibody. Various methods were tested: Protein A, exclusion chromatography, electrophoresis, filtrations. Success was encountered when the resulting fractions were washed 3 time by filtration on VivaSpin15 column (MWCO: 50 Kda).
(§3) This condition was used as a control to follow the elimination of unbound glycolipid under washing conditions.
(§4) Experiments were run on two series of transfected-CD1d Hela cells and non-CD1d-Hela Cells and 3 diluted samples of fractions A and B (10 μg/ml, 1 μg/ml and 0.1 μg/ml) were evaluated. In each series of Hela cells stimulation activity of the glycolipid alone was previously evaluated as reference following IFN-γ secretion.
(§5) Maximum theoretical concentration of free glycolipid (unbounded) that can remain in the diluted fractions after coupling reaction if the washing process is inefficient.
(§6) Estimated theoretical concentration of glycolipid that have to be remained in the diluted fractions after the washing process to induce the level of observed cytokine secretion (based on the reaction control with free glycolipid).

The subject of assay [2] is iNKT cells. The assay is described as follows: IFN-γ secretion by iNKTs after activation with non transfected HeLa cells loaded with cetuximab coupling fractions. In kind it is cell-based, human. The conditions noted are these: for Observed concentration (glycolipid concentration equivalent to observed IFN-γ secretion): non transfected HeLa cells. As for the experimental part: as §1, §2, §3, §4, §5, §6
First cetuximab was modified by adding TRAUT functions, with a ratio of 100 TRAUT molecules for 1 antibody. It allowed addition of at least 4 TRAUT functions to cetuximab, as determined by the Ellman reaction previously investigated (data not shown). The mixture was washed and then ½ equivalent of 6-Mal-PEG6-GalCer 3a and activated cetuximab were incubated to initiate the linkage.
The main difficulty encountered in these experiments is to ensure the elimination of the unreacted glycolipids in the medium after the coupling reaction with the antibody. Various methods were tested: Protein A, exclusion chromatography, electrophoresis, filtrations. Success was encountered when the resulting fractions were washed 3 time by filtration on VivaSpin15 column (MWCO: 50 Kda) follow by purification on Superdex 200 10/300 GL column for size exclusion chromatography.
Two different experimental conditions were used to validate the purification process (see Table 9). • Fraction B: Cetuximab is not modified by TRAUT activation and 6-Mal-PEG6-GalCer 3a. This condition was used as a control to follow the elimination of unbound glycolipid under washing conditions.
Experiments were run on non-CD1d-Hela Cells and 3 diluted samples of fractions A and B (10 μg/ml, 1 μg/ml and 0.1 μg/ml) were evaluated. Mass spectrometry analysis indicate that two molecules of 6-Mal-PEG6-GalCer 3a were linked per antibody, so when 10 μg/ml of Fraction A was used, it corresponds approximately to a concentration of 10^−7M of equivalent 6-Mal-PEG6-GalCer 3a. In each series of Hela cells stimulation activity of the glycolipid alone was previously evaluated as reference following IFN-γ secretion.

Another assay concerns HCT116 and HeLa cells. The assay is described as follows: ADCC assay with NK92-CD16+ cells, mortality of target cells by flow cytometry. The conditions noted are these: 24 hours. In kind it is cell-based. Here is the method:
Another important function of cetuximab is its ability to induce ADCC. It was important to check the preservation of that behaviour from GalCer/Cetuximab complex C1. […] Target cells (HCT116 and HeLa cells) were coincubated for 1 hour with cetuximab alone (blue left panel) or Cetuximab-GalCer Complex C1 (red right panel). Then ADCC was initiated by addition of NK92-CD16+ cells (a conventionally cell line used for ADCC assay) follow by an incubation for 24 hours. Mortality of target cells was analysed by Flow Cytometry.
On the technique in general: A flow cytometer gives signals particle by particle.

In the case of “GalCer/Cetuximab complex C1: TRAUT activated Cetuximab covalently linked to 6-Mal-PEG6-GalCer 3a”, the “Observed concentration (glycolipid concentration equivalent to observed IFN-γ secretion)” value is listed as >10^−8M in the assay on iNKT cells [1] (coupling product 0.1 μg/ml); >10^−8M with iNKT cells [1] (coupling product 1 μg/ml); >10^−8M in the assay with iNKT cells [1] (coupling product 10 μg/ml); >10^−6M with iNKT cells [2] (coupling product 0.1 μg/ml); >10^−6M with iNKT cells [2] (coupling product 1 μg/ml); >10^−6M with iNKT cells [2] (coupling product 10 μg/ml). The “IFN-γ cytokine release by iNKT cells” value was “induces IFN-γ cytokine release by iNKT cells from all diluted fractions” in the assay with iNKT cells [1] (transfected-CD1d Hela cells, fractions 10, 1 and 0.1 μg/ml); “induces IFN-γ cytokine release by iNKT cells from all diluted fractions” in the assay on iNKT cells [2] (non-CD1d Hela cells, fractions 10, 1 and 0.1 μg/ml). Besides, in the assay with iNKT cells [2] (non-CD1d tumor cells), the “cytokine secretion level compared with free 3a” value is listed as “upper level than the maximum release”. Besides, the “ADCC potency” value in the assay with HCT116 and HeLa cells is reported as “preserved in all conditions on both models”.
